Experimental data as given in PubChem BioAssay (Tox21).
“And” between values parts separate entries of the source, which are not always exact repeats. Equal entries are not always repeated. This is a selection; strong and weak results do not stand in their true shares. Records with an inconclusive call do not appear. The source made the active and inactive calls. Calls follow the shape of the full dose curve.
% is scaled to controls: 0 for no effect and ±100 for the full control effect.

Assay: p53 small molecule agonists, cell-based qHTS assay with rat liver microsomes (AID 1963578)
Settings: HCT-116 p53RE-bla, beta-lactamase ratio, 16 h, at 30.3 µM (top of the series)
Excerpt: U.S. Tox21 Program National Center for Advancing Translational Sciences [NCATS] Division of Preclinical Innovation [DPI] U.S. Environmental Protection Agency [EPA] National Institutes of Environmental Health Sciences [NIEHS] National Toxicology Program [NTP] U.S. Food and Drug Administration [FDA] Tox21 Assay Overview: p53, a tumor suppressor protein, is activated following cellular insult, including DNA damage and other cellular stresses. The activation of p53 regulates cell fate by inducing DNA repair, cell cycle arrest, apoptosis, or cellular senescence. The activation of p53, therefore, is a good indicator of DNA damage and other cellular stresses. […] The activation of the reporter gene under culture conditions can be detected by fluorescence intensity. This cell line was used to screen the Tox21 10K compound library in the condition of presence of rat liver microsomes and to identify agonists that activate the p53 signaling pathway after in vitro metabolic activation (Ooka et al., Archive of Toxicology 96:1975-1987, 2022).
Tox21 Assay Protocol Summary: The p53RE-bla cells were dispensed at 4,000cells/3ul/well in 1536-well black-clear bottom plates. After the assay plates were incubated at 37 C, 5% CO2 incubator for 5 hours, 23 nL of compounds dissolved in DMSO, positive controls or DMSO only was transferred to the assay plate. Following compound addition, 3 uL of rat liver microsomes (Molecular Toxicology, Boone, NC) at final concentration of 0.5 mg/mL and 1uL of Beta-Nicotinamide adenine dinucleotide 2-phosphate (NADPH) at final concentration of 0.5 mg/mL were transferred to the assay plate. The plates were incubated at 37 C for 16 hours. 1 uL of LiveBLAzer detection mixture was added to each well and the plates were incubated at room temperature in the dark for 2 h.
With `NC(=O)Nc1ccc([As](=O)(O)O)cc1` the activation was inactive: 3.09%.

Same assay, conditions: HCT-116 p53RE-bla, beta-lactamase ratio, 16 h, at 66 µM (top of the series)
With `NC(=O)Nc1ccc([As](=O)(O)O)cc1` the activation was inactive: 4.36%.

Same assay, conditions: HCT-116 p53RE-bla, beta-lactamase ratio, 16 h; at 66 µM (top of the series) unless noted
In the case of `O=C(Cl)OCCOC(=O)Cl`, the activation was inactive: 1.03%.
With `Cc1cc([N+](=O)[O-])c(O)c([N+](=O)[O-])c1` the activation was inactive: 0.223%.
With `CCC(C)(OOC(C)(C)C)OOC(C)(C)C` the activation was inactive: 0.519% [at 13.6 µM].
For `CN(C(=O)Cc1ccccc1)[C@H]1CC[C@@]2(CCCO2)C[C@@H]1N1CCCC1`, the activation was inactive: -0.126% [at 30.3 µM].
In the case of `Cc1cc([N+](=O)[O-])cc([N+](=O)[O-])c1O`, the activation was inactive: -1.73%.
For `CN(C(=O)Cc1cccc2occc12)[C@H]1CC[C@@]2(CCCO2)C[C@@H]1N1CCCC1`, the activation was inactive: -2.17%.
For `CCCCO[P+](=O)OCCCC`, the activation was inactive: -1.45% and inactive: -0.939%.
For `O=[P+](Oc1ccccc1)Oc1ccccc1`, the activation was inactive: -1.98%.
With `CCCCOP(OCCCC)OCCCC` the activation was inactive: 2.2%.
With `CCCCC(CC)CO[P+](=O)OCC(CC)CCCC` (centres undefined) the activation was inactive: 0.42%.
In the case of `O=C1C2CC=CCC2C(=O)N1SC(Cl)(Cl)C(Cl)Cl` (centres undefined), the activation was inactive: 6.65% and inactive: -4.39%.
With `COP(=S)(Cl)OC` the activation was inactive: -1.03%.
For `O=C(Cl)Oc1ccccc1`, the activation was inactive: -2.18%.
In the case of `ClP(Cl)c1ccccc1`, the activation was inactive: 0.574%.
With `O=P(Cl)(Cl)c1ccccc1` the activation was inactive: 0.322%.
With `COC(=O)Cl` the activation was inactive: 1.03%.
With `CN(N=O)C(=N)N[N+](=O)[O-]` the activation was inactive: 24.2%.
For `CN(C(=O)Cc1ccc(Cl)c(Cl)c1)[C@H]1CC[C@@]2(CCCO2)C[C@@H]1N1CCCC1`, the activation was inactive: -1.59% [at 30.3 µM].
With `CCCCCCCCCCCCCC[P+](CCCCCC)(CCCCCC)CCCCCC` the activation was inactive: 1.2%.
In the case of `O=P(Cl)(Oc1ccccc1)Oc1ccccc1`, the activation was inactive: 3.18%.
With `CCNC(C)Cc1ccc2c(c1)OCO2` (centres undefined) the activation was inactive: 4.66%.
For `O=[N+]([O-])c1ccc([N+](=O)[O-])cc1`, the activation was inactive: -1.25%.
